This assay deals with Sodium-dependent serotonin transporter (Rattus norvegicus, UniProt P31652). As to the kind of experiment: Displacement of [3H]citalopram from SERT in Sprague-dawley rat frontal cortex by liquid scintillation spectrophotometry. It is filed as tissue-based.

By UniProt entry, the sequences of proteins in these tests, tags left out.
UniProt P31652, whole entry: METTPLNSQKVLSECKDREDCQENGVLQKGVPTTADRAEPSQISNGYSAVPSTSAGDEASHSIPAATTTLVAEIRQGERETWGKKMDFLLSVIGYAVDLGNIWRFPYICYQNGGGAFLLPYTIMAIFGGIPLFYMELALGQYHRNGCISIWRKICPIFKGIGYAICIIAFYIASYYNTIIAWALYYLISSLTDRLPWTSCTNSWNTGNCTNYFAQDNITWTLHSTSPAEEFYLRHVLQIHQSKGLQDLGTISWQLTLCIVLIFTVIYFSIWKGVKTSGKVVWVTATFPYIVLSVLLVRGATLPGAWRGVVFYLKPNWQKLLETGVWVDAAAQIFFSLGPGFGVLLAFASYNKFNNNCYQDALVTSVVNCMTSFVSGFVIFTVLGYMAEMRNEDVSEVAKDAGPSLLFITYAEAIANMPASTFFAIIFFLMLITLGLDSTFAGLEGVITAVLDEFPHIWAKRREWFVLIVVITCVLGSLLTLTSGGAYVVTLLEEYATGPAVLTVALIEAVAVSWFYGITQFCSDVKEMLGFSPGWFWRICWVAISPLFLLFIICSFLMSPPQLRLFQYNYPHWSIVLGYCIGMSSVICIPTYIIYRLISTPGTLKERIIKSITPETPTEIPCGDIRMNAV

We go through 2 compounds from ChEMBL document CHEMBL1139307, “1-Naphthyl and 4-indolyl arylalkylamines as selective monoamine reuptake inhibitors” (Bioorg Med Chem Lett, 2009).

Consider `CNCC[C@@H](Oc1ccccc1C)c1ccccc1` (racemic) [ATOMOXETINE], for which the Ki was 1500 nM. On to `CNCCC(Oc1ccccc1OC)c1ccccc1` (racemic) [NISOXETINE], for which affinity was put at a Ki of 277 nM.
